The results in this text go back to PubChem BioAssay AID2280 (The Scripps Research Institute Molecular Screening Center, 2010).

The chains behind the UniProt entries cited, without tags or fusion partners. Where a name states a change or a piece, a line headed by the entry shows the natural chain unless it says otherwise.
UniProt Q17339: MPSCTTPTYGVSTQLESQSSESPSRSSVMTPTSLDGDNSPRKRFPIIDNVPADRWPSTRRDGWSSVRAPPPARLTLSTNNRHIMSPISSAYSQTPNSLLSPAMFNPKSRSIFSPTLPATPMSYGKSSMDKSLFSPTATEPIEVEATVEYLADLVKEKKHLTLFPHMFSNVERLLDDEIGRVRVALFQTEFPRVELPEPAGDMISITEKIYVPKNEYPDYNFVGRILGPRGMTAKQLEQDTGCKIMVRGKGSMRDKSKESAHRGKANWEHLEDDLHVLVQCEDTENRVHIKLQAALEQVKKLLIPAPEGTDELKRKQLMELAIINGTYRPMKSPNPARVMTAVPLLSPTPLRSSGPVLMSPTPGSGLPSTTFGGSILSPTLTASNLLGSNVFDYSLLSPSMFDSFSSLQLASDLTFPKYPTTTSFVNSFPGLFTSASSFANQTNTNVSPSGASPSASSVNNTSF

Only a part is listed here, and it is no random draw. Activity calls are given as the source filed them.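 Rule for the calls: active = percent inhibition above a per-plate cutoff, the plate mean of test compounds plus 3 SD (cut at about 30% in these data); inactive = the rest.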

In general, inhibition refers to the change of the read-out against control, counted positive when it falls.

This assay deals with Female germline-specific tumor suppressor gld-1 (Caenorhabditis elegans) (UniProt Q17339). Kind of assay: GLD-1/TGE RNA complex disruptors, primary screen, biochemical, fluorescence polarization (AID 2280).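 Note: 0% = DMSO wells with GLD-1 and probe and 100% = wells lacking GLD-1.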 The following applies: purified GLD-1 + fluorescein TGE RNA, at 5.96 µM, stronger effect = higher value.
With `COc1ccc(N/C(=N/P(=O)(N2CCOCC2)N2CCOCC2)N2CCOCC2)cc1`, the inhibition was inactive: 1.3%.

As for `O=C(OC1CN2CCC1CC2)C12CC3CC(CC(C3)C1)C2` (stereo not given), the inhibition is inactive: 3.6%. In the case of `Cc1cc(=O)[nH]c(N[N+](=O)[O-])n1`, the inhibition is inactive: 7.19%. Regarding `Cc1c2c(nc3ccccc13)SC(C(Cl)Cl)C2` (stereo not given), the inhibition was inactive: 4.58%.

For the compound `COc1ccc2nc(NP(=O)(c3ccccc3)c3ccccc3)sc2c1`, the inhibition is inactive: 2.85%. For `COc1cc(I)ccc1[As](=O)(O)O`, the inhibition is inactive: -1.09%. The same measure for `CC(C)c1ccc(OP(=O)(Nc2ccccn2)Oc2ccccc2F)cc1` (stereo not given): inactive: -4.25%. The result for `ClCCSc1nnc(-c2cccnc2)o1` reads inactive: -2.56%; that for `CC(C)NC(=O)NP(=O)(Oc1ccccc1)Oc1ccccc1`, inactive: -3.11%; that for `CCN(CC)C(=S)SC(NC=O)C(Cl)(Cl)Cl` (stereo not given), inactive: 5.89%.

Take `O=[N+]([O-])c1cc([N+](=O)[O-])c(-c2ccn[nH]2)s1`: the inhibition was inactive: -0.24%. Take `O=[As](O)(c1ccc(O)cc1)c1ccccc1O`: the inhibition was inactive: -7.7%.

`C[As](=O)(O)c1cccc(C(=O)O)c1`: the inhibition is inactive: 6.38%. The same measure for `COc1cc(C(=O)NCC2(N3CCOCC3)CCCCC2)ccc1OCC(C)C`: inactive: -0.86%. For `Cc1ccc2nc3c(c(C)c2c1)CC(C(Cl)Cl)S3` (stereo not given), the inhibition is inactive: -5.01%. With `Cc1ccc(OP(=O)(Nc2ccc([N+](=O)[O-])cn2)Oc2ccc(C)cc2)cc1`, the inhibition was inactive: -4.2%. The same measure for `CCOC(=O)Nc1cccc([As](=O)(O)O)c1`: inactive: 1.63%.

As to `Cc1cc(SC(NC=O)C(Cl)(Cl)Cl)ncn1` (stereo not given), the inhibition was inactive: 8.9%. In the case of `O=P(Nc1ccccn1)(c1cccc2ccccc12)c1cccc2ccccc12`, the inhibition was inactive: 3.73%. As to `CCOC(=O)Nc1ccc([As](=O)(O)O)c(O)c1`, the inhibition was inactive: 3.21%. The result for `Cc1cc(SC(NC(=O)c2ccccc2)C(Cl)(Cl)Cl)nc(C(C)C)n1` (stereo not given) reads inactive: -0.88%; that for `CCOC(=O)c1ccc(NC(=O)C(C)(CCl)SC)cc1` (stereo not given), inactive: -1.61%; that for `O=C(OC1CN2CCC1CC2)c1cccc([N+](=O)[O-])c1` (stereo not given), inactive: 6.6%. Consider `CCC(C)N(CC(C)C)C(=S)SC(NC(C)=O)C(Cl)(Cl)Cl` (stereo not given), for which the inhibition was inactive: 5.55%. Regarding `COP1(=S)c2c(C)nn(CCC#N)c2N=C(c2ccc(F)cc2)N1C` (stereo not given), the inhibition is inactive: 1.13%. `O=C(COc1ccccc1)OC1CN2CCC1CC2` (stereo not given): the inhibition is inactive: -2.67%.

Turning to `O=C(Nc1ccncc1[N+](=O)[O-])c1ccc([N+](=O)[O-])cc1[N+](=O)[O-]`, the inhibition was inactive: 5.83%. The result for `COc1ccccc1CNC(=O)COC(=O)C(O)(c1ccccc1)c1ccccc1` reads inactive: 2.26%; that for `O=[As](O)(c1ccccc1Br)c1ccccc1Br`, inactive: 0.58%; that for `CC1(CBr)Cn2c(nc3ccccc3c2=O)S1` (stereo not given), inactive: -1.67%. Take `CN(C(=O)Cc1ccc(Cl)c(Cl)c1)[C@@H]1CCCC[C@H]1N1CCCC1`: the inhibition is inactive: 5.06%. Regarding `CC(C)/C=N\N=C(\N)N[N+](=O)[O-]`, the inhibition was inactive: -1.71%. For the compound `CCOP(=O)(Nc1ccc(C)cn1)OCC`, the inhibition was inactive: 4.67%. Consider `CN(CCCl)Cc1cc(Cl)c(NC2=NCCN2)c(Cl)c1`, for which the inhibition is inactive: 4.48%. Turning to `CCC1=CC2Cc3nc4ccc(Cl)cc4c(N)c3C(C1)C2` (stereo not given), the inhibition is inactive: -8.46%. For `O=P1(Nc2ccccn2)COc2ccccc2OC1`, the inhibition is inactive: 4.49%. For the compound `CCOP(=O)(NC(=NC(C)c1ccccc1)NC(C)c1ccccc1)OCC` (stereo not given), the inhibition is inactive: -0.12%. Regarding `Clc1n[nH]nc1-c1nn[nH][15n]1`, the inhibition was inactive: 1.45%. As for `CC(C)(C)C(=O)NC(Sc1ncccn1)C(Cl)(Cl)Cl` (stereo not given), the inhibition is inactive: 3.84%. Turning to `O=P1(Nc2ncccn2)COc2ccccc2OC1`, the inhibition was inactive: 4.1%. The result for `O=[As](O)(c1cccs1)c1cccs1` reads inactive: -0.26%; that for `Cc1ccc(OCC(=O)OC2CN3CCC2CC3)cc1` (stereo not given), inactive: 1.4%; that for `NS(=O)(=O)c1cccc(NC(=O)COC(=O)C(O)(c2ccccc2)c2ccccc2)c1`, inactive: 4.74%. The same measure for `O=P1(Nc2ccc(Br)cn2)COc2ccccc2OC1`: inactive: 3.43%; for `Nc1cccc([As](=O)(O)c2ccccc2)c1`: inactive: 4.9%. The result for `Cc1nn(-c2ccccc2)c2c1P(=O)(N1CCOCC1)N(C)C(c1ccccc1)=N2` (stereo not given) reads inactive: -6.63%.

In the case of `Cc1ccc(C(=O)OC2CN3CCC2CC3)cc1` (stereo not given), the inhibition was inactive: 5.64%. The result for `CC1CCC(C(C)C)C(OP(=O)(Nc2ccccn2)c2ccccc2)C1` (stereo not given) reads inactive: -1.31%; that for `O=C(/C=C/c1ccccc1)OC1CN2CCC1CC2` (stereo not given), inactive: -1.78%. The same measure for `CN(C)C1(CNC(=O)c2ccc(S(C)(=O)=O)cc2)CCCCC1`: inactive: -1.92%; for `NC(=O)Nc1ccc([As](=O)(O)O)cc1`: inactive: -8.76%. The result for `O=[N+]([O-])c1ccc2c(c1)nnn2O` reads inactive: -1.11%.

As for `CN(C)C(=O)c1cc([N+](=O)[O-])cc2c1-c1c(cc([N+](=O)[O-])cc1[N+](=O)[O-])C2=O`, the inhibition is inactive: -5.87%. Turning to `CN(C(=O)Cc1ccc(Cl)c(Cl)c1)[C@H]1CC[C@@]2(CCCO2)C[C@@H]1N1CCCC1`, the inhibition was inactive: 1.1%.

With `N#CCCN(C(=O)COC(=O)C(O)(c1ccccc1)c1ccccc1)c1ccc(F)cc1`, the inhibition is inactive: 12.8%. Consider `CN(C(=O)Cc1ccccc1)[C@@H]1CC[C@]2(CCCO2)C[C@H]1N1CCCC1`, for which the inhibition is inactive: 7.23%.

As for `CCOP1(=S)c2c(C)nn(CCC#N)c2N=C(c2ccc(F)cc2)N1C` (stereo not given), the inhibition is inactive: -4%. In the case of `CS(=O)(=O)c1cc([N+](=O)[O-])c2no[n+]([O-])c2c1`, the inhibition is active: 32.2%. With `CCOP1(=S)c2c(C)nn(CCC#N)c2N=C(c2ccccc2F)N1C` (stereo not given), the inhibition is inactive: 2.84%. The result for `O=P(Nc1nccs1)(Oc1ccccc1)Oc1ccccc1` reads inactive: 2.78%. Consider `O=P(Nc1nccs1)(c1ccccc1)c1nc2ccccc2s1` (stereo not given), for which the inhibition was inactive: 16%. Turning to `O=C(O)COc1ccc([As](=O)(O)O)cc1[N+](=O)[O-]`, the inhibition is inactive: 7.67%.

With `Nc1ccccc1[As](=O)(O)c1ccccc1`, the inhibition was inactive: -2.51%.

In the case of `CCCOP(=S)(Nc1nc(N)cc(=O)[nH]1)OCCC`, the inhibition was inactive: 2.06%. In the case of `Cc1ccc(NCCc2c([N+](=O)[O-])cc([N+](=O)[O-])cc2[N+](=O)[O-])cc1`, the inhibition is inactive: 1.98%.
